Assay: Selectivity index, ratio of IC50 for inhibition of PKD1 (unknown origin) to IC50 for inhibition of NIK (unknown origin)

Ratio IC50: 100
SMILES: CN1C(=O)[C@](O)(C#Cc2cccc(-n3nc(C(N)=O)c4cccnc43)c2)[C@H]2C[C@H]21

— ChEMBL document CHEMBL5380868, “Filling a nick in NIK: Extending the half-life of a NIK inhibitor through structure-based drug design” (Bioorg Med Chem Lett, 2023)
